{"source": "patent US9346820B2", "about": "“HIV-1 protease inhibitors having gem-di-fluoro bicyclic P2-ligands” (priority 2013, dated 2016)", "tested_on": "HIV-1LAI", "test": "Drug susceptibility MTT assay, MT-2 cells exposed to HIV-1LAI", "conditions": "ratio of CC50 to EC50 against HIV-1LAI"}
{"smiles": "CC(C)CN(C[C@@H](O)[C@H](Cc1ccccc1)NC(=O)O[C@H]1CCOC1)S(=O)(=O)c1ccc(N)cc1", "note": "[APV, Amprenavir]", "values": [{"measurement": "Selectivity Index", "result": ">3,333"}]}
